# Assay results from ChEMBL document CHEMBL5528084, “Discovery and Characterization of a New Class of C5aR1 Antagonists Showing In Vivo Activity” (J Med Chem, 2024).
# The chains behind the UniProt entries cited, without tags or fusion partners. Where a name states a change or a piece, a line headed by the entry shows the natural chain unless it says otherwise.
# UniProt Q9P296: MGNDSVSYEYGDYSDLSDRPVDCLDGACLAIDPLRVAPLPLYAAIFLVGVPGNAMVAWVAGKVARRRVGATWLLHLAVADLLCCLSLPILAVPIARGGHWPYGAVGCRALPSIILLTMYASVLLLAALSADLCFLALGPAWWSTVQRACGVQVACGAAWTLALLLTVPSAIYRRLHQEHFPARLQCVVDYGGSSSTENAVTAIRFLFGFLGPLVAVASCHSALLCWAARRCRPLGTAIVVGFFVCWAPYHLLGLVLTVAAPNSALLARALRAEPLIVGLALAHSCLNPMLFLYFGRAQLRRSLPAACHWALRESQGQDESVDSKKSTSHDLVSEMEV
# Biological target: C5a anaphylatoxin chemotactic receptor 2 (Homo sapiens) (UniProt Q9P296)
# Assay: Inhibition of hC5a binding to C5L2 (unknown origin) upto 25 uM
structure (smiles),measurement,value
Cc1cccc(F)c1N1CCC(N2Cc3ccccc3N(Cc3ccccc3C(F)(F)F)C2=O)CC1,inhibition,inactive

# Activity calls are given as the source filed them. No cut-off for these calls is given here.
